{"sequences": {"note": "By UniProt entry, the sequences of proteins in these tests, tags left out. Residues count along the entry.", "UniProt P28335, 33-458": "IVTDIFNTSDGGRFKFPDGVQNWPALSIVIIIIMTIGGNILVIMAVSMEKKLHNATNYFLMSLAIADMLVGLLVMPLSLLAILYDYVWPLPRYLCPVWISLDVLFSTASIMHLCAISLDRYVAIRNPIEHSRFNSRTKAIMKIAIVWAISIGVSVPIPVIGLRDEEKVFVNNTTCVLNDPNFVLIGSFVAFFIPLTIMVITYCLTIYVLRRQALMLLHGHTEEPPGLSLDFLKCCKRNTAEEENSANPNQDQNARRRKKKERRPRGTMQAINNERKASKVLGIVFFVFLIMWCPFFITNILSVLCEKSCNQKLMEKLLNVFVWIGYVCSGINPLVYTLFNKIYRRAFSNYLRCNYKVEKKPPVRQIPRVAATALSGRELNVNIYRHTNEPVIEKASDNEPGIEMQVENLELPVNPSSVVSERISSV"}, "source": "patent US7012089B2", "about": "“[1,4]Diazocino[7,8,1-hi]indole derivatives as antipsychotic and antiobesity agents” (Wyeth, priority 2002, dated 2006)", "key": {"human 5-HT2C receptor": {"biological_target": "human 5-HT2C receptor (Homo sapiens, UniProt P28335)", "assay": "5-HT2C receptor-stimulated calcium mobilization (FLIPR) in CHO cells", "settings": "reference compounds"}, "[1]": {"biological_target": "human 5-hydroxytryptamine-2C (h-5-HT2C) receptor (Homo sapiens, UniProt P28335)", "assay": "[125I]DOI binding to membranes of CHO cells expressing the h-5-HT2C receptor", "settings": "reference compounds; displacement of [125I]DOI, CHO cell membranes; read-out: Ki (95% confidence interval)"}}}
{"smiles": "Clc1cccc(N2CCNCC2)c1", "note": "[mCPP, meta-chlorophenylpiperazine, reference compound]", "values": [{"measurement": "EC50", "setting": "human 5-HT2C receptor", "value": 5.4, "unit": "nM"}, {"measurement": "Ki", "setting": "[1]", "value": 6.5, "unit": "nM"}]}
